From patent US20210106703A1, “RADIOIMMUNOCONJUGATES IN COMBINATION WITH OTHER DRUGS AS TREATMENT AGAINST NHL” (Nordic Nanovector ASA, priority 2017, published 2021)

Columns and labels:
[1] = test system: Ramos cells; test: Apoptosis induction (Annexin V/7-AAD, Muse flow cytometer); assay type: cell-based, human; settings: 6 MBq/mL radiolabelled mAb for 18 h, peak time 72 h
Method: (§1) Cells were harvested at 0, 2 h, 18 h, 1 d, 2 d, 3 d of RIT. At each time point, apoptosis was detected with […] from Merck Millipore (Annexin V Kit with 7-AAD) in the dark for 30 min at room temperature before analysis using Muse® flow cytometer

[2] = test system: Rec-1 cells; test: as above; assay type: cell-based, human; settings: Rec-1, 6 MBq/mL radiolabelled mAb for 18 h, peak time 72 h
Method: as §1

^177Lu-cetuximab
Apoptosis level [1]: 27±10% | Apoptosis level [2]: 60±19%
